The values below come from publication PMC9837035 (Nature Communications, 2023).

One experiment has as its target T1, G9a SET domain (Homo sapiens, UniProt Q96KQ7).
T1 construct: the human G9a SET domain (residues 913–1193) was synthesized using the E. coli cell-free synthesis method; made in house; host or cells: E. coli cell-free synthesis
T1 sequence (Q96KQ7 913-1193): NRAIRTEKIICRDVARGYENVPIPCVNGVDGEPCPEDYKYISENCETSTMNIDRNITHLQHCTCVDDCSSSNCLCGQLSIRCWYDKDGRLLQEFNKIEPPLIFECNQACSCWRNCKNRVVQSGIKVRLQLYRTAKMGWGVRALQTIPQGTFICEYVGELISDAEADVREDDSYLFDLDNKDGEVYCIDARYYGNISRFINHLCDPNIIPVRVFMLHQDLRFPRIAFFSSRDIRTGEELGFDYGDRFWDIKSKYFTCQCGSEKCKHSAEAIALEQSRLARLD
As to the kind of experiment: Surface plasmon resonance (SPR). Type of experiment: binding. To be noted: single run. The procedure: For crystal structure analysis, the human G9a SET domain (residues 913–1193) was synthesized using the E. coli cell-free synthesis method[48],[49] and purified in the same manner as described previously, except that the final size-exclusion column chromatography using HiLoad Superdex 200 16/60 (GE Healthcare) was equilibrated with 20 mM Tris-HCl buffer (pH 8.0) containing 400 mM NaCl. […] Crystals were grown by the hanging drop method at 293 K, where the sample solution was mixed with an equal volume of a reservoir solution containing 100 mM Bis-Tris propane (pH 7.4), 200 mM sodium formate, 10% ethylene glycol, and 25% PEG 3350. The harvested crystals were coated with Paratone-N oil (Hampton Research) before being flash-cooled in liquid nitrogen. Diffraction data were collected at the X06DA beamline of the Swiss Light Source, Paul Scherrer Institut (Villigen, Switzerland), and were processed and scaled with XDS[51], AIMLESS[52], and other CCP4 programs. The structure of G9a with UNC0638 (PDB ID: 3RJW)[23] was used for the initial phase determination by the molecular replacement method with Phaser[53]. The topology and parameter file for the inhibitor was generated with eLBOW[54] from SMILES strings. Structure refinement was carried out with Phenix[55] and manual model building using COOT[56]. Crystallographic statistics are summarized in Supplementary Table 3.
SPR was performed using a Biacore T200 (Cytiva) and Series S Sensorchip SA (Cytiva, BR100531) at the temperature of 25 °C. A solution of PBS, 0.005% TWEEN20 (Sigma, P9416), 0.5 mM TCEP (Nacalai Tesque, 06342-21), and 2% DMSO (Sigma, 276855) was filtered with a 0.22-μm filter and used as the running buffer. Kinetic measurements were carried out at a flow rate of 30 μL/min, and the association and dissociation phases were monitored for 120 s and 120–300 s, respectively. The G9a SET domain was biotinylated by using NHS-PEG4-Biotin (Thermo, 39259), and captured to flow cells 2, 3, and 4 with immobilization levels of ~2300 RU. No specific treatment was applied to the reference surface (flow cell 1). To prevent oxidation of the immobilized protein, a solution containing 1 μM ZnCl2 and 5 mM TCEP was injected at a flow rate of 10 μL/min for 60 s before each set of kinetic measurements. The extra wash command was executed after each measurement cycle with 50% DMSO aqueous solution. To correct for bulk responses, solvent correction was performed once after all kinetics runs by using running buffer containing 1–3% DMSO. The sensorgrams obtained from the three flow cells were analyzed individually by Biacore T200 Evaluation Software (Cytiva). The dissociation constant (KD) and binding kinetic parameters were calculated by a curve fit to a built-in 1:1 binding model.

A further experiment has as its target T2, NSD2 (T1150A) (Homo sapiens, UniProt O96028, T1150A).
T2 sequence (O96028 1-1365 T1150A): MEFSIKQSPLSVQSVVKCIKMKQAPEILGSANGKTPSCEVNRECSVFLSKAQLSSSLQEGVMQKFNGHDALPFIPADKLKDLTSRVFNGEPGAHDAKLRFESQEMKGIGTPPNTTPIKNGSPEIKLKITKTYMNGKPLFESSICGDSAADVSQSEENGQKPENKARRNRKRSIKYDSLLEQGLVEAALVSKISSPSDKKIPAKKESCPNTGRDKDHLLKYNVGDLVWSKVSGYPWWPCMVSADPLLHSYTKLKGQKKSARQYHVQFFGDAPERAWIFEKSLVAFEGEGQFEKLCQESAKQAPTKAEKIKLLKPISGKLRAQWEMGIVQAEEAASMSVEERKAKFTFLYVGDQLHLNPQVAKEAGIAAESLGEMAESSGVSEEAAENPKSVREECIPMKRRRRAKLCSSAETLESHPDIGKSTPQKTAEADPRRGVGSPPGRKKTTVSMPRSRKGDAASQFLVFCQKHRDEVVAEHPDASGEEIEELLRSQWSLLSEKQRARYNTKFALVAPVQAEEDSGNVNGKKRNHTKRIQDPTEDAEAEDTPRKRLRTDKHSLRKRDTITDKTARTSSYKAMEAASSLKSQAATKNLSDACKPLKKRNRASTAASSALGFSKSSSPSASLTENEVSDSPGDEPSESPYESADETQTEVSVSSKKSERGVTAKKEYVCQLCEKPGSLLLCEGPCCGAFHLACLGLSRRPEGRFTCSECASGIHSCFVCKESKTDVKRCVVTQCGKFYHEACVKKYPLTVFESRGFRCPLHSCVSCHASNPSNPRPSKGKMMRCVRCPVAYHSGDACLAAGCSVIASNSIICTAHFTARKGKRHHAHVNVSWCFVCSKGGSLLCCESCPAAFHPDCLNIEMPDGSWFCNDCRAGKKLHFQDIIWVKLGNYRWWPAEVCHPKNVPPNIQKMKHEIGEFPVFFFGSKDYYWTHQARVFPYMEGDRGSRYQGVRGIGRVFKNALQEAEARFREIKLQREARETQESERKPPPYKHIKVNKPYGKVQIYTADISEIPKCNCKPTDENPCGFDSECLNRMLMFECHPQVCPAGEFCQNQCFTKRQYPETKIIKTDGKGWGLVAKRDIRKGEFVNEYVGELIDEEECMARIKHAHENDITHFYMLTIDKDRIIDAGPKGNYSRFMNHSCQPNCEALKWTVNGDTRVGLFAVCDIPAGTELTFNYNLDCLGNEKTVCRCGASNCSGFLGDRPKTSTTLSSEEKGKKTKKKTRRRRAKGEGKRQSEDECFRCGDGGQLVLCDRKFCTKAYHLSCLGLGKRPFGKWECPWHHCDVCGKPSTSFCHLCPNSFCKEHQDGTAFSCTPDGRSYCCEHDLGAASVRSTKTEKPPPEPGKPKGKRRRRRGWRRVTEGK
As to the kind of experiment: Radioisotope-based methyltransferase assay (selectivity). To be noted: 1 μM SAM.

Turning to `Cc1c(C(=O)NC(CCC2CC2)C(=O)Nc2ccc(C#N)cc2)[nH]c2c1C(=O)CC(C)(C)C2` (centres unmarked) [RK-701], at G9a SET domain, the Koff was 0.012 s⁻¹, the Kon is 16000 M⁻¹ s⁻¹, the koff stood at 0.013 s⁻¹ and the kon is 17000 M⁻¹ s⁻¹.
Take `Nc1ncnc2c1ncn2[C@@H]1O[C@H](CSCC[C@H](N)C(=O)O)[C@@H](O)[C@H]1O` [SAH, S-(5'-Adenosyl)-L-homocysteine, reference compound]: on NSD2 (T1150A), 7.2 µM corresponded to half-maximal inhibition (IC50).

As usually defined, the koff is the first-order rate constant of dissociation. In general, kon refers to the rate constant with which the complex forms. Lower therefore signals slow association. In general, IC50 refers to the concentration that inhibits the measured activity by half. Read a high IC50 as lower potency.
